Experiments:
Translocator protein [1] = target: T1, Translocator protein (Rattus norvegicus, UniProt P16257); experiment: Displacement of [3H]-Ro- 5-4864 from rat adrenal peripheral-type benzodiazepine receptor (PBR)
Translocator protein [2] = target: T1, Translocator protein; experiment: Binding affinity against peripheral-type benzodiazepine receptor (PBR) from rat cortex homogenate using [3H]-PK 11195 as radioligand
Translocator protein [3] = target: T1, Translocator protein; experiment: Displacement [3H]-PK 11195 from rat adrenal peripheral-type benzodiazepine receptor (PBR)

Protein sequences, listed by entry. Tags and fused reporters are not part of them.
UniProt P16257, whole entry: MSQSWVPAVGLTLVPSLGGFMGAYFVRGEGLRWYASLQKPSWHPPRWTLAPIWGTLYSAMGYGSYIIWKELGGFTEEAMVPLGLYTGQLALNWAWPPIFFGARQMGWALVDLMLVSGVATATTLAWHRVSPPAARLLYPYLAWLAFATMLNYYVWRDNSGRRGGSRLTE

Cc1ccc(C2=C(OC(=O)N(C)C)c3cccn3-c3ccccc3O2)cc1
Ki (Translocator protein [1]): 1.3 nM
Ki (Translocator protein [2]): 0.52 nM
Ki (Translocator protein [3]): 1.1 nM

CN(C)C(=O)OC1=C(c2ccccc2)Oc2ccccc2-n2cccc21
Ki (Translocator protein [1]): 0.8 nM
Ki (Translocator protein [2]): 2 nM
Ki (Translocator protein [3]): 1 nM
